# In PubChem BioAssay AID1239 (SRMLSC, 2008):
# Only a part is listed here, and it is no random draw. Some results for these compounds are left out of this collection, so the calls shown say nothing about other tests. Activity calls are given as the source filed them. Rule as the data show it: active = fold change above about 3.3; inconclusive = no clear call, values can overlap the other calls; inactive = below that.
# Experiment: NF-kB upregulation, human neuronal cells – cell-based, HTS, primary screen (AID 1239)
# Details: NF-kB reporter expression, at 12.5 µM, hits give high values
row,SMILES,fold change
1,C=CCN1CCN(CCOC(=O)C(O)(c2ccccc2)c2ccccc2)CC1,inactive: 1.04
2,CCN1CCCC(OC(=O)C2(O)c3ccccc3C=Cc3ccccc32)C1 (stereo not drawn),inactive: 1.11
3,CN(C)C1CCCC1OC(=O)C(O)(c1ccccc1)c1ccccc1 (stereo not drawn),inactive: 1.03
4,Cc1ccccc1C(=O)NCC1(N2CCCCC2)CCCCC1,inactive: 0.87
5,CC(C)N1C(=O)CC2(CCN(CCOC(=O)C(O)(c3ccccc3)c3ccccc3)CC2)C1=O,inactive: 0.79
6,CN(C)c1cccc(C(=O)NCC2(N(C)C)CCCCC2)c1,inactive: 0.94
7,O=C(OC1CN2CCC1CC2)C(CO)(c1ccccc1)c1ccccc1 (stereo not drawn),inactive: 1.18
8,COc1cccc(C(=O)NCC2(N3CCCCC3)CCCCC2)c1,inactive: 1.15
